Assay results taken from ChEMBL document CHEMBL1629435, “Novel insights into the use of Glowing LNA as nucleic acid detection probes--influence of labeling density and nucleobases” (Bioorg Med Chem Lett, 2010).

Columns and labels:
Format in all cases: nucleic-acid assay
[1] = test system: Nucleic Acid; experiment: Binding affinity to CGU AUA GUG RNA sequence assessed as change in melting temperature by thermal denaturation assay
[2] = test system: Nucleic Acid; experiment: Binding affinity to CGT AAA GTG DNA sequence assessed as change in melting temperature by thermal denaturation assay
[3] = test system: Nucleic Acid; experiment: Binding affinity to CGU ACA GUG RNA sequence assessed as change in melting temperature by thermal denaturation assay
[4] = test system: Nucleic Acid; experiment: Binding affinity to CGT ACA GTG DNA sequence assessed as change in melting temperature by thermal denaturation assay
[5] = test system: Nucleic Acid; experiment: Binding affinity to CGT ATA GTG DNA sequence assessed as change in melting temperature by thermal denaturation assay
[6] = test system: Nucleic Acid; experiment: Binding affinity to CGU AGA GUG RNA sequence assessed as melting temperature by thermal denaturation assay
[7] = test system: Nucleic Acid; experiment: Binding affinity to CGU AAA GUG RNA sequence assessed as change in melting temperature by thermal denaturation assay
[8] = test system: Nucleic Acid; experiment: Binding affinity to CGT AGA GTG DNA sequence assessed as melting temperature by thermal denaturation assay
[9] = test system: Nucleic Acid; experiment: Binding affinity to CGT AGA GTG DNA sequence assessed as change in melting temperature by thermal denaturation assay
[10] = test system: Nucleic Acid; experiment: Binding affinity to CGU AGA GUG RNA sequence assessed as change in melting temperature by thermal denaturation assay
[11] = test system: Nucleic Acid; experiment: Binding affinity to AAA UAU AUA GUG C RNA sequence assessed as change in melting temperature by thermal denaturation assay
[12] = test system: Nucleic Acid; experiment: Binding affinity to AAA TAT ATA GTG DNA sequence by fluorescence emission spectrum analysis
[13] = test system: Nucleic Acid; experiment: Binding affinity to AAA UAU AUA GUG C RNA sequence assessed as melting temperature by thermal denaturation assay
[14] = test system: Nucleic Acid; experiment: Binding affinity to AAA TAT ATA GTG C DNA sequence assessed as change in melting temperature by thermal denaturation assay
[15] = test system: Nucleic Acid; experiment: Binding affinity to AAA UAU AUA GUG C RNA sequence by fluorescence emission spectrum analysis
[16] = test system: Nucleic Acid; experiment: Binding affinity to AAA TAT ATA GTG C DNA sequence assessed as melting temperature by thermal denaturation assay

Cc1cn([C@@H]2O[C@@]3(COP(C)(=O)O[C@H]4C[C@H](n5cnc6c(N)ncnc65)O[C@@H]4COP(C)(=O)O[C@H]4C[C@H](n5cnc6c(=O)[nH]c(N)nc65)O[C@@H]4COP(=O)(O)O[C@H]4[C@H]5OC[C@]4(COP(C)(=O)O[C@H]4C[C@H](n6cnc7c(=O)[nH]c(N)nc76)O[C@@H]4CO)O[C@H]5n4cc(C)c(=O)[nH]c4=O)CO[C@@H]2[C@@H]3OP(=O)(O)OC[C@H]2O[C@@H](n3cnc4c(N)ncnc43)C[C@@H]2OP(C)(=O)OC[C@@]23CO[C@@H]([C@H](n4cc(C)c(=O)[nH]c4=O)O2)[C@@H]3OP(=O)(O)OC[C@H]2O[C@@H](n3cnc4c(=O)[nH]c(N)nc43)C[C@@H]2OP(C)(=O)OC[C@H]2O[C@@H](n3ccc(N)nc3=O)C[C@@H]2O)c(=O)[nH]c1=O (some centres not stated)
ΔTm [1]: < -30.5 °C
ΔTm [2]: < -29.5 °C
ΔTm [3]: < -30.5 °C
ΔTm [4]: < -29.5 °C
ΔTm [5]: < -29.5 °C
Tm [6]: 40.5 °C
ΔTm [7]: -27.5 °C
Tm [8]: 39.5 °C
ΔTm [9]: 5 °C
ΔTm [10]: 4 °C

Cc1cn([C@H]2C[C@H](OP(=O)(O)OC[C@H]3O[C@@H](n4cnc5c(=O)[nH]c(N)nc54)C[C@@H]3OP(=O)(O)OC[C@H]3O[C@@H](n4ccc(N)nc4=O)C[C@@H]3O)[C@@H](COP(C)(=O)O[C@H]3C[C@H](n4cnc5c(N)ncnc54)O[C@@H]3COP(=O)(O)O[C@H]3C[C@H](n4cc(C)c(=O)[nH]c4=O)O[C@@H]3COP(=O)(O)O[C@H]3C[C@H](n4cnc5c(N)ncnc54)O[C@@H]3COP(C)(=O)O[C@H]3C[C@H](n4cnc5c(=O)[nH]c(N)nc54)O[C@@H]3COP(=O)(O)O[C@H]3C[C@H](n4cc(C)c(=O)[nH]c4=O)O[C@@H]3COP(=O)(O)O[C@H]3C[C@H](n4cnc5c(=O)[nH]c(N)nc54)O[C@@H]3CO)O2)c(=O)[nH]c1=O (some centres not stated)
ΔTm [11]: 6 °C
fold change (FC) [12]: 3.5
Tm [13]: 44.5 °C
ΔTm [14]: 4 °C
fold change (FC) [15]: 3.5
Tm [16]: 41.5 °C

Cc1cn([C@H]2C[C@H](OP(=O)(O)OC[C@H]3O[C@@H](n4cnc5c(N)ncnc54)C[C@@H]3OP(C)(=O)OC[C@H]3O[C@@H](n4cc(C)c(=O)[nH]c4=O)C[C@@H]3OP(=O)(O)OC[C@H]3O[C@@H](n4cnc5c(=O)[nH]c(N)nc54)C[C@@H]3OP(C)(=O)OC[C@H]3O[C@@H](n4ccc(N)nc4=O)C[C@@H]3O)[C@@H](COP(C)(=O)O[C@H]3C[C@H](n4cnc5c(N)ncnc54)O[C@@H]3COP(C)(=O)O[C@H]3C[C@H](n4cnc5c(=O)[nH]c(N)nc54)O[C@@H]3COP(=O)(O)O[C@H]3C[C@H](n4cc(C)c(=O)[nH]c4=O)O[C@@H]3COP(C)(=O)O[C@H]3C[C@H](n4cnc5c(=O)[nH]c(N)nc54)O[C@@H]3CO)O2)c(=O)[nH]c1=O (some centres not stated)
Tm [6]: 46.5 °C
Tm [8]: 40.5 °C
ΔTm [9]: 6 °C
ΔTm [10]: 10 °C

Cc1cn([C@@H]2O[C@@]3(COP(C)(=O)O[C@H]4C[C@H](n5cnc6c(N)ncnc65)O[C@@H]4COP(=O)(O)O[C@H]4[C@H]5OC[C@]4(COP(=O)(O)O[C@H]4C[C@H](n6cnc7c(N)ncnc76)O[C@@H]4COP(C)(=O)O[C@H]4C[C@H](n6cnc7c(=O)[nH]c(N)nc76)O[C@@H]4COP(=O)(O)O[C@H]4[C@H]6OC[C@]4(COP(=O)(O)O[C@H]4C[C@H](n7cnc8c(=O)[nH]c(N)nc87)O[C@@H]4CO)O[C@H]6n4cc(C)c(=O)[nH]c4=O)O[C@H]5n4cc(C)c(=O)[nH]c4=O)CO[C@@H]2[C@@H]3OP(=O)(O)OC[C@H]2O[C@@H](n3cnc4c(=O)[nH]c(N)nc43)C[C@@H]2OP(=O)(O)OC[C@H]2O[C@@H](n3ccc(N)nc3=O)C[C@@H]2O)c(=O)[nH]c1=O (some centres not stated)
Tm [13]: 32.5 °C
Tm [16]: 33.5 °C
